{
  "sequences": {"note": "Sequences of proteins named here, by UniProt entry; tags and fusion partners are left off.", "UniProt Q13093, whole entry": "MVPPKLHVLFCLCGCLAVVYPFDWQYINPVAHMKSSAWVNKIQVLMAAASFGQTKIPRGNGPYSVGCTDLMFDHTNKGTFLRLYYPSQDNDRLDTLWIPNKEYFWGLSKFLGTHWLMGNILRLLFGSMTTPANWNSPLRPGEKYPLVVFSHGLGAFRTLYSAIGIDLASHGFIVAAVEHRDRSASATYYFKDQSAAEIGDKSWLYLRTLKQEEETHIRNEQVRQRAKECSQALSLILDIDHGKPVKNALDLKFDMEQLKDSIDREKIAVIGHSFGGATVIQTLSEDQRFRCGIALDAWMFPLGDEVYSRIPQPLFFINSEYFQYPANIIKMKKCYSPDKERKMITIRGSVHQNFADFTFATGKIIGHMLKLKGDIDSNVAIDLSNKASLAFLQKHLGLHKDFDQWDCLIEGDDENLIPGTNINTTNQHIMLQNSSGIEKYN"},
  "source": "PubChem BioAssay AID463082",
  "about": "(The Scripps Research Institute Molecular Screening Center, 2010)",
  "note": "Only a part is listed here, and it is no random draw. Active and inactive are the calls of the source.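 How the source made its calls: active means inhibition above the mean inhibition across the screen plus 3 SD (cut at about 25% in these data); inactive means the rest.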",
  "data": [
    {"molecular_target": "Platelet-activating factor acetylhydrolase (Homo sapiens) (UniProt Q13093)", "assay": "pPAFAH enzyme inhibitors, primary screen, biochemical, fluorescence polarization, human (AID 463082);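 further: inhibitors block binding of the rhodamine activity-based probe so polarization drops; 0% = enzyme with DMSO and 100% = wells lacking pPAFAH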", "conditions": "recombinant pPAFAH, FP-rhodamine probe fluorescence polarization; at 3.39 µM; active compounds read high", "values": [
      {"smiles": "CCC(=O)N(c1ccccc1)C1(COC)CCN(CCn2nnn(CC)c2=O)CC1", "inhibition": "inactive: -1.4%"},
      {"smiles": "CCC(=O)N(c1ccccc1)C1(COC)CCN(CCc2cccs2)CC1", "inhibition": "inactive: -5.03%"}
    ]}
  ]
}
